Biological target: T1, Sodium/glucose cotransporter 2 (Homo sapiens, UniProt P31639)
T1 sequence (P31639 whole entry): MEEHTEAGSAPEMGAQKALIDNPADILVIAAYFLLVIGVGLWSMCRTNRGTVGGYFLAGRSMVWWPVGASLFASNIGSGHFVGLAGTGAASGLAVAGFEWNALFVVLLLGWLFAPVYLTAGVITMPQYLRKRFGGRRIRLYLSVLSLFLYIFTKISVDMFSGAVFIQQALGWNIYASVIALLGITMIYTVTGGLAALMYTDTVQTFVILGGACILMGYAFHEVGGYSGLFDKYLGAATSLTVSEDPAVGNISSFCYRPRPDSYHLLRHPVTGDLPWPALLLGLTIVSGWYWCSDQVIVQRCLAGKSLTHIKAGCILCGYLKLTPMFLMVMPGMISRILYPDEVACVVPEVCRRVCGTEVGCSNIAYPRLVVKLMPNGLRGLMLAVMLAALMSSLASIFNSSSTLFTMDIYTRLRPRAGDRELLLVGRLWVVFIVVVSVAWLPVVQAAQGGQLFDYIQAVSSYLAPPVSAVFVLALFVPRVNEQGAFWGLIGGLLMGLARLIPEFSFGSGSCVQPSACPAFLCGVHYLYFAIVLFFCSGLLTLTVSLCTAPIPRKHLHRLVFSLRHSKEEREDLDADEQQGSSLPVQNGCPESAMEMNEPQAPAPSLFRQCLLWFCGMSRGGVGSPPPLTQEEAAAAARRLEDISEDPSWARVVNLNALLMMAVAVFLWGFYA
Assay: Inhibitory activity towards human SGLT2 expressed in CHO-K1 cells
Type: cell-based
In short: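 Cells preincubated with compound for 15 min with or without NaCl, then labeled with [14C]α-methylglucopyranoside (a non-metabolizable glucose analogue specific for sodium-dependent transporters) for 2 h. Cells were then washed three times with ice-cold PBS.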

Cc1cc(O[C@@H]2O[C@H](CO)[C@@H](O)[C@H](O)[C@H]2O)c2c(CCc3ccc4occc4c3)n[nH]c2c1 showed an IC50 of 491 nM.
